Assay results reported in EP2246337A1, “Use of isoxazole derivatives as cyclooxygenase inhibitors” (Universita' degli Studi di Bari, priority 2004, dated 2005).

Sequences of proteins named here, by UniProt entry; tags and fusion partners are left off. Residues count along the entry.
UniProt P23219, 24-599: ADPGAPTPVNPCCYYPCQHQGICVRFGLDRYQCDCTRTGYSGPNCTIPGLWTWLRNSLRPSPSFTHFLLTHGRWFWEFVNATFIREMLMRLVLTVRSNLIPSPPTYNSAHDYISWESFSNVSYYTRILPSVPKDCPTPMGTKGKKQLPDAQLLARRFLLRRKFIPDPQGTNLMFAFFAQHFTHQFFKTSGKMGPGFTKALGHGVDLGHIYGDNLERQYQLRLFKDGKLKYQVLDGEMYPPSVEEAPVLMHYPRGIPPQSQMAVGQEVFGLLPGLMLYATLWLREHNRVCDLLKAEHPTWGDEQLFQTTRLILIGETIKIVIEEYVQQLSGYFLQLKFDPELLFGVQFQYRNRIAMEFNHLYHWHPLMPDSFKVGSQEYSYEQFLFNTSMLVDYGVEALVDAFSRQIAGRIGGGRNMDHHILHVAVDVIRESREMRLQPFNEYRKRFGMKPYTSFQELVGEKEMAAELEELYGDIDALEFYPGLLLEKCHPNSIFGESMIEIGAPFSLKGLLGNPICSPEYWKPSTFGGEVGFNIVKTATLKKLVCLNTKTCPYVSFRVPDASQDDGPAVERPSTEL

Molecular target: platelet COX-1 (Homo sapiens, UniProt P23219)
Assay: COX-1 assay in isolated human whole blood allowed to clot (serum TXB2)
Conditions: read-out: COX-1 IC50, isolated human whole blood clotting 1 hour at 37°C, means of at least two experiments

Cc1onc(-c2ccccc2)c1-c1ccc(S(N)(=O)=O)cc1 [Valdecoxib, 4-(5-methyl-3-phenylisoxazol-4-yl)benzenesulphonamide]
IC50: 27 µM
